Measurements as given in patent US20240139185A1, “COMPOUNDS THAT PARTICIPATE IN COOPERATIVE BINDING AND USES THEREOF” (Revolution Medicines, Inc., priority 2018, published 2024).

Key:
[1] = target: BRAF-GTP-KRAS-G12C complex (Homo sapiens, UniProt P01116+P62937, G12C); test: KRAS-BRAF complex disruption through competition with CYPA-compound by TR-FRET; conditions: read-out: BRAF-GTP-KRAS-G12C Disruption; biochemical BRAF-KRAS G12C-GTP disruption assay EC50, with CYPA
Method in brief: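 Compound-driven loss of KRAS–BRAF RBD TR-FRET signal, Eu-anti-His/APC-anti-GST pair (10/50 nM, 1.5 h), following a 3 h room-temperature preincubation of 50 nM His6-KRAS G12C-GTP and 500 nM CypA in 25 mM Hepes pH 7.3 buffer. EC50 by 4-parameter fit. Variants used wild-type KRAS in place of G12C or no CypA.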

BRAF-GTP-KRASWT complex = BRAF-GTP-KRASWT complex (Homo sapiens, UniProt P01116+P62937); test: KRAS-BRAF complex disruption TR-FRET with wild-type KRAS (G12C specificity); conditions: read-out: BRAF-GTP-KRASWT complex disruption with CYPA (IC50)
Experimental: In this example, TR-FRET was used to measure the compound-facilitated disruption of a KRAS-BRAF complex. A mixture of tagless Cyclophilin A, His6-KRAS G12C-GMP-PNP, and GST-BRAF RAS binding domain was added to a 384-well assay plate containing compounds of the invention and incubated for 3 hours. A mixture of Anti-His Eu-W1024 and anti-GST allophycocyanin was then added and the reaction was incubated for an additional 1.5 hours. TR-FRET signal was read on an EnVision microplate reader (Perkin Elmer, Ex 320 nm, Em 665/615 nm). Compounds that facilitate disruption of a KRAS_BRAF complex were identified as those eliciting a decrease in the TR-FRET ratio relative to DMSO control wells. To determine the presenter-dependence of the compound-mediated KRAS-BRAF complex disruption, Cyclophilin A was left out of the initial incubation (see Table 5). To determine G12C specificity of the compound-mediated KRAS-BRAF complex disruption, wild-type KRAS was used instead of G12C KRAS (see Table 5). […]
Experimental Protocol • 1. Use Mosquito to dispense 100 nL/well of compounds (varying concentration in […]) into 384-well black ProxiPlate to make assay-ready-plate (ARP). • 2. […] Read on EnVision (Ex: 320 nm; Em1: 615 nm; Em2: 665 nm). • 8. […]

Row | Structure (SMILES) | EC50 [1] [µM] | IC50 (BRAF-GTP-KRASWT complex) [µM]
1 | CC(C)[C@@H](C(=O)N[C@H]1Cc2cc(O)cc(c2)-c2ccc3c(c2)N(C[C@H](C)COC(=O)[C@@H]2CCCN(N2)C1=O)CC3(C)/C=C/C#N)N(C)C(=O)C1CN(C(=O)CCl)C1 (single isomer, unassigned) [221] | < 0.5 | > 30
2 | CC(C)[C@@H](C(=O)N[C@H]1Cc2cc(O)cc(c2)-c2ccc3c(c2)n(c(=O)n3C2CC2)C[C@H](C)COC(=O)[C@@H]2CCCN(N2)C1=O)N(C)C(=O)C1CN(C(=O)CCl)C1 | < 0.5 | > 30
